Reference: article PMC5838147, “Modulation of Oral Bioavailability and Metabolism for Closely Related Cyclic Hexapeptides” (International Journal of Peptide Research and Therapeutics, 2017)

Experiment: in vitro
Conditions: dog, MDCK

Row | SMILES | Papp [×10⁻⁶ cm/s]
1 | CC(C)C[C@@H]1NC(=O)[C@H](Cc2ccc(O)cc2)N(C)C(=O)[C@H]2CCCN2C(=O)[C@H](CC(C)C)NC(=O)[C@H](CC(C)C)N(C)C(=O)[C@@H](CC(C)C)N(C)C1=O [(2), [NMe-Tyr-Leu-NMe-D-Leu-NMe-Leu-Leu-D-Pro]] | 11.4
2 | CC(C)C[C@@H]1NC(=O)[C@H](Cc2ccc(O)cc2)NC(=O)[C@H]2CCCN2C(=O)[C@H](CC(C)C)NC(=O)[C@H](CC(C)C)NC(=O)[C@@H](CC(C)C)NC1=O [(1), [Tyr-Leu-D-Leu-Leu-Leu-D-Pro-]] | 2
